Assay results taken from patent US20040141914A1, “Cancerous disease modifying antibodies” (priority 2003, published 2004).

Legend:
Test in all cases: FACS binding to live cells
Details in all cases: antibody 20 micrograms/mL
OVCAR-3 = tested on: OVCAR-3
Method: (§1) Cells were prepared for FACS by initially washing the cell monolayer with DPBS (without Ca^++and Mg^++). Cell dissociation buffer (INVITROGEN) was then used to dislodge the cells from their cell culture plates at 37° C. After centrifugation and collection the cells were resuspended in Dulbecco's phosphate buffered saline containing MgCl2, CaCl2 and 25% fetal bovine serum at 4° C. (wash media) and counted, aliquoted to appropriate cell density, spun down to pellet the cells and resuspended in staining media (DPBS containing MgCl2, CaCl2 and 2% fetal bovine serum) at 4° C. in the presence of test antibodies (10A429.3) or control antibodies (isotype control or anti-EGF-R) at 20 micrograms/mL on ice for 30 minutes. Prior to the addition of Alexa Fluor 488-conjugated secondary antibody the cells were washed once with wash media. The Alexa Fluor 488-conjugated antibody in staining media was then added for 20 minutes. The cells were then washed for the final time and resuspended in staining media containing 1 microgram/mL propidium iodide. Flow cytometric acquisition of the cells was assessed by running samples on a FACScan using the CellQuest software (BD Biosciences). The forward (FSC) and side scatter (SSC) of the cells were set by adjusting the voltage and amplitude gains on the FSC and SSC detectors. […] Live cells were acquired by gating for FSC and propidium iodide exclusion.
(§2) Table 3 tabulated the mean fluorescence intensity fold increase above isotype control and is presented qualitatively as: less than 5 (−); 5 to 50 (+); 50 to 100 (++); above 100 (+++) and in parenthesis, the percentage of cells stained. Representative histograms of 10A429.3 antibodies were compiled for FIG. 1 and evidence the binding characteristics, inclusive of illustrated bimodal peaks in some cases. […] This was consistent with the lack of cytotoxicity to these cell types.

HT-29 = tested on: HT-29
Method: as §1, §2

PC-3 = tested on: PC-3
Method: as §1, §2

SW1116 = tested on: SW1116
Method: as §1, §2

Hs888 Lu = tested on: Hs888 Lu
Method: as §1, §2

CCD-27sk = tested on: CCD-27sk
Method: as §1, §2

Substance: anti-EGFR (C225): anti-EGFR antibody C225, IgG1, kappa, Cedarlane; positive control
- percentage of cells stained, OVCAR-3 (OVCAR-3): 90%
- percentage of cells stained, HT-29 (HT-29): 97%
- percentage of cells stained, PC-3 (PC-3): 95%
- percentage of cells stained, SW1116 (SW1116): 43%
- percentage of cells stained, Hs888 Lu (Hs888 Lu): 95%
- percentage of cells stained, CCD-27sk (CCD-27sk): 50%
